Test results reported in patent US5834290.

How the values were obtained:
[1] = target: recombinant SCCE, active (trypsin-activated recombinant SCCE of Example 10; rSCCE of Examples 12 and 13) (human)
[2] = target: stratum corneum chymotryptic enzyme (SCCE), native, from human plantar stratum corneum (human)

aprotinin (from UniProt P00974)
S-2586 hydrolysing activity of rSCCE, Activity (%) (% activity at 5.7 µM aprotinin) [1]: 7.4 | hydrolysis of S-2586 by the proteinase associated with plantar stratum corneum cells, Activity (%) [2]: 10 % activity
